# Test results reported in PubChem BioAssay (NCATS).
# Chains of the proteins cited; added tags and fusions are not shown. Lines headed by an entry give the natural chain unless they say otherwise; changes in a name come on top.
# UniProt P10635, whole entry, looked up: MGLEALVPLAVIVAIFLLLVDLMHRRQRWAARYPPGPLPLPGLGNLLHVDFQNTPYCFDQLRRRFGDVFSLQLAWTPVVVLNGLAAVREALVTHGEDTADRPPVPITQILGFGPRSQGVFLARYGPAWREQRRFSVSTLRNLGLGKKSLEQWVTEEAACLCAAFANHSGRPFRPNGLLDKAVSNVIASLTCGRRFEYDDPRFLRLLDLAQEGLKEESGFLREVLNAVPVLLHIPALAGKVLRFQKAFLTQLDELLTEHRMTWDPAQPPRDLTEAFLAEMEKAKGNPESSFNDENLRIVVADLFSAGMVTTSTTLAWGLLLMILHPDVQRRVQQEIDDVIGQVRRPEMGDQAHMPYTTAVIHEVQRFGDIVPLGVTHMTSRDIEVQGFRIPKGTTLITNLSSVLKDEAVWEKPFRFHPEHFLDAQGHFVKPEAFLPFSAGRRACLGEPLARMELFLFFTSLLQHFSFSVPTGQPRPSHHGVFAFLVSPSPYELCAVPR
# UniProt P33261, whole entry, looked up: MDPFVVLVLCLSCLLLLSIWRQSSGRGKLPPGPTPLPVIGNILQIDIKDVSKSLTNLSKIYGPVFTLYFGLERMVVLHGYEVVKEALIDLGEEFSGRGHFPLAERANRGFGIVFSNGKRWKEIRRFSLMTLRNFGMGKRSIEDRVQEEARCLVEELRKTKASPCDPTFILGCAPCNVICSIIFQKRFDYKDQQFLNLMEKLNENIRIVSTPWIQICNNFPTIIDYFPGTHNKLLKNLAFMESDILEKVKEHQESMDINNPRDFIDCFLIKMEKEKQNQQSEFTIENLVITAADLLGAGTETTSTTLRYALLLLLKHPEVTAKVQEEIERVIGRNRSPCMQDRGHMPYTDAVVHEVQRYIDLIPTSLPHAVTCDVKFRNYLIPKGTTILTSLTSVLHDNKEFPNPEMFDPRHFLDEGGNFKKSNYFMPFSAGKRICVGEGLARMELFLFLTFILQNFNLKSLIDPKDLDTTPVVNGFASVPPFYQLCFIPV
# UniProt Q12809: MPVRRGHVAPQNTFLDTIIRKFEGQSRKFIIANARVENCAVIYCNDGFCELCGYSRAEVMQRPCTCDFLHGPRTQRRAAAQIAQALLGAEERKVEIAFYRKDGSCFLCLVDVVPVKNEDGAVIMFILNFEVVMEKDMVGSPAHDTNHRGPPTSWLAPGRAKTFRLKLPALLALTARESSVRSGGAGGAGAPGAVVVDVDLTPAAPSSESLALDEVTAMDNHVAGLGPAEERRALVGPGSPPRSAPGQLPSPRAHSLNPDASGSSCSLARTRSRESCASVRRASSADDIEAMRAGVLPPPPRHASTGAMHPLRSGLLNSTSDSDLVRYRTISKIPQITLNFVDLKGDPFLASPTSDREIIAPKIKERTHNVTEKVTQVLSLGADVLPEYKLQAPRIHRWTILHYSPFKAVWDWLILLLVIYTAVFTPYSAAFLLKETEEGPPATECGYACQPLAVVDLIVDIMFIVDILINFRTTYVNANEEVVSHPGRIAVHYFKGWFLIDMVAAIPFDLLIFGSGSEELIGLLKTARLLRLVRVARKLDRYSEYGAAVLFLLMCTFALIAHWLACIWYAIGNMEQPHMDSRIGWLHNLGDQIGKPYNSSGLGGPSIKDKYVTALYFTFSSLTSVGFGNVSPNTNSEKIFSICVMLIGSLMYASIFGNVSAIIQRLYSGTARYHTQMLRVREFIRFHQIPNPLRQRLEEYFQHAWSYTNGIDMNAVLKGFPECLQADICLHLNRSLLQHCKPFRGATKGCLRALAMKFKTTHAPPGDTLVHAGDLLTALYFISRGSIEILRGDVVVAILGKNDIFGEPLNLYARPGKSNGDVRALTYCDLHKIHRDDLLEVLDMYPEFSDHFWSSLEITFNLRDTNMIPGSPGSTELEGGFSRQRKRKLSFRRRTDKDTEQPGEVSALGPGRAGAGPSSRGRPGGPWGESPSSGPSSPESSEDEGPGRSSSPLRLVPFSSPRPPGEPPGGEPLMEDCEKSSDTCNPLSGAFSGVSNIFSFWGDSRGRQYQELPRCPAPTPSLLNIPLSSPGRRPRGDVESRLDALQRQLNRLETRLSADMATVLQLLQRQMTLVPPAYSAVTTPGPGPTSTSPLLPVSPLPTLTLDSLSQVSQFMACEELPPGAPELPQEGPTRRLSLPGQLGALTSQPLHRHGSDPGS
# UniProt P08684, whole entry, looked up: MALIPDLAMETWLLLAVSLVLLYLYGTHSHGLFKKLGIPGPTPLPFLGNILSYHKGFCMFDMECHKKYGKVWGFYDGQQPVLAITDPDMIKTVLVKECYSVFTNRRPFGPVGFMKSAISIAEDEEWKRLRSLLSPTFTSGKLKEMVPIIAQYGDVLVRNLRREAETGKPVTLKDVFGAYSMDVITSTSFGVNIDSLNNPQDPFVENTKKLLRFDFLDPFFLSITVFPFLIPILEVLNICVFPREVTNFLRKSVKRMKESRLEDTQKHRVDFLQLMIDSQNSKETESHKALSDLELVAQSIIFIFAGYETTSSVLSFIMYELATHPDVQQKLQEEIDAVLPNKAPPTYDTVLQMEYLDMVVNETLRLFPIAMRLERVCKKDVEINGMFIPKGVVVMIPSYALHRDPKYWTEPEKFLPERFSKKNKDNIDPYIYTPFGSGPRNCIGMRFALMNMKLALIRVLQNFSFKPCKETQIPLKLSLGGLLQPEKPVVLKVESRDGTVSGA
# UniProt P11712, whole entry, looked up: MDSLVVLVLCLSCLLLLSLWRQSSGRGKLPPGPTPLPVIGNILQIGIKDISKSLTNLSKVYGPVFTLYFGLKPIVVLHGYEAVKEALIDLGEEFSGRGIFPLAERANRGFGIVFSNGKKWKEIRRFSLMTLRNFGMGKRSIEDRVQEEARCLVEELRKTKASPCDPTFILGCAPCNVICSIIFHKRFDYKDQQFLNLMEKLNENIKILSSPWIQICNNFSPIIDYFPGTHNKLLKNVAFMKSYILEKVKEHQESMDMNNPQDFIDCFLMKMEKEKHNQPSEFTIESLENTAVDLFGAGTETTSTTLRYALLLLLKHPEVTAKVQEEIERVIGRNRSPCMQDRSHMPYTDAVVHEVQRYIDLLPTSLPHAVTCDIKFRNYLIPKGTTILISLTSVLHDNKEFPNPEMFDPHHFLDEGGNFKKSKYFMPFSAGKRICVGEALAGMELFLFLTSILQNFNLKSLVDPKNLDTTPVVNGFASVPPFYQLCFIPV
# “And” between values parts separate entries of the source, which are not always exact repeats. Equal values may be shown once. For part of these data: Most of the hits are listed elsewhere, so they are rarer here than in the full data. This is a selection; strong and weak results do not stand in their true shares. Inconclusive results are not listed. The source made the active and inactive calls. Unless noted, calls follow the shape of the dose curve; as a rule, active = well fitted curve in the direction sought with a large enough effect; inconclusive = small, poorly fitted or top-dose-only effect, or another doubt; inactive = no such curve, though single readings can be large; an effect the other way counts as inactive or inconclusive.
# Experiments:
# [1] = target: Cytochrome P450 2D6 (Homo sapiens) (UniProt P10635); test: qHTS Assay for Inhibitors and Substrates of Cytochrome P450 2D6 (AID 891); conditions: recombinant CYP2D6, luciferin-ME EGE luminescence; also: potency is read from the fitted curve at half-maximal effect; nearly all actives have a fitted effect of over 60% in size
# [2] = target: Cytochrome P450 2C19 (Homo sapiens) (UniProt P33261); test: qHTS Assay for Inhibitors and Substrates of Cytochrome P450 2C19 (AID 899); conditions: recombinant CYP2C19, luciferin-H EGE luminescence; also: potency is read from the fitted curve at half-maximal effect; nearly all actives have a fitted effect of over 60% in size
# [3] = target: Cytochrome P450 2D6 (Homo sapiens) (UniProt P10635); test: Cytochrome P450 family 2 subfamily D member 6 (CYP2D6) small molecule antagonists: luciferase biochemical (cell-free) qHTS assay (AID 1645840; active = well fitted curve in the direction sought with a large enough effect in the repeat runs; an effect the other way counts as inactive or inconclusive; also: potency is read from the fitted curve at half-maximal effect; nearly all actives have a fitted effect of over 55% in size); conditions: P450-Glo CYP2D6 enzyme, luciferin luminescence, 1 h
# Procedure, shortened: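 P450-Glo CYP2D6 system: proluciferin substrate converted by enzyme to luciferin, read by luminescence proportional to activity. Enzyme-substrate mix with compound 10 min at room temperature, then NADPH regeneration 1 h before detection reagent.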
# [4] = target: Voltage-gated inwardly rectifying potassium channel KCNH2 (Homo sapiens) (UniProt Q12809); test: qHTS Assay for Small Molecule Inhibitors of the Human hERG Channel Activity (AID 588834); conditions: U2OS BacMam hERG, FluxOR thallium flux fluorescence;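 also: potency is read from the fitted curve at half-maximal effect; lower thallium flux fluorescence means stronger hERG block; nearly all actives have a fitted effect of over 50% in size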
# [5] = target: Cytochrome P450 3A4 (Homo sapiens) (UniProt P08684); test: qHTS Assay for Activators of Cytochrome P450 3A4 (AID 885); conditions: recombinant CYP3A4, Luciferin-PPXE luminescence, 60 min; at 25.6 µM (top of the series); also: nearly all actives have a fitted effect of over 65% in size
# [6] = target: Cytochrome P450 2C9 (Homo sapiens) (UniProt P11712); test: qHTS Assay for Inhibitors and Substrates of Cytochrome P450 2C9 (AID 883); conditions: recombinant CYP2C9, luciferin-H luminescence, 60 min; also: potency is read from the fitted curve at half-maximal effect; nearly all actives have a fitted effect of over 60% in size
compound,measurement,setting,value
O=c1[nH]c2ccccc2n1C1CCN(CCCC(c2ccc(F)cc2)c2ccc(F)cc2)CC1,Potency,[1],active: 10 µM and active: 3.16 µM
same,Potency,[2],active: 10 µM
same,Potency,[3],active: 1.95 µM
Fc1ccc(C(OCCN2CCN(CCCc3ccccc3)CC2)c2ccc(F)cc2)cc1,Potency,[4],active: 112 nM and active: 224 nM
Clc1ccc(COC(Cn2ccnc2)c2ccc(Cl)cc2Cl)c(Cl)c1 (stereo unspecified),"activity change, positive = activation",[5],inactive: -95.3%
O=c1c(O)c(-c2ccc(O)c(O)c2)oc2cc(O)cc(O)c12,Potency,[6],active: 7.94 µM
